In PubChem BioAssay AID1910 (Broad Institute, 2009):
Only a part is listed here, and it is no random draw. Active and inactive are the calls of the source.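 The calls were made as follows: active = mean activation of at least 10% of the iron chelator positive control signal, with at least half of replicates also reaching 10%; inconclusive = mean and replicate majority disagree about reaching 10%; inactive = mean and most replicates under 10%.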

Experiment: HIF pathway transcriptional activators, primary screen, cell-based, U2OS HRE-luciferase, luminescence (AID 1910)
Conditions: U2OS HRE-luciferase reporter, stronger effect = higher value, screened at 7.5 µM (by protocol), normalized: DMSO 0%, desferrioxamine 100%

| SMILES | activation |
| --- | --- |
| Cc1c2non([O-])c-2c(C)[n+](=O)[n+]1[O-] | inactive: -0.444% |
| O=C(NC(Sc1ccncn1)C(Cl)(Cl)Cl)c1ccccc1 (stereo not drawn) | inactive: -0.554% |
| Oc1ccccc1CNc1ccccn1 | inactive: 0.221% |
| CC(C)CC(=O)NC(Sc1ccc(Cl)cc1)C(Cl)(Cl)Cl (stereo not drawn) | inactive: -0.19% |
| Nc1cc(N)c2nonc2c1[N+](=O)[O-] | inactive: 0.312% |
| Clc1ccc(Cl)c(NC2=NCC(CBr)S2)c1 (stereo not drawn) | inactive: -0.213% |
| CN1CCCC(OC(=O)C(c2ccccc2)c2ccccc2)C1 (stereo not drawn) | inactive: -1.16% |
| Cc1ccc(OP(=O)(Nc2nccs2)Oc2ccc(C)cc2)cc1 | inactive: -0.908% |
| COc1ccccc1OP(=O)(Nc1ccc(C)cn1)Oc1ccccc1OC | inactive: 0.19% |
| Cc1ccc(N/C(=N/P(=O)(N2CCOCC2)N2CCOCC2)N2CCOCC2)cc1 | inactive: -0.0957% |
| NC(=O)c1cc([N+](=O)[O-])cc([N+](=O)[O-])c1N | inactive: -1.11% |
| Nc1cccc2ccc([As](=O)(O)O)cc12 | inactive: -1.85% |
| CCN(N=Nc1nonc1N)c1nonc1N | inactive: 0.029% |
| O=[N+]([O-])c1cc([N+](=O)[O-])c(CCN2CCOCC2)c([N+](=O)[O-])c1 | inactive: 1.1% |
| CN(C(=O)Cc1ccc(Cl)c(Cl)c1)[C@H]1CCCC[C@@H]1N1CCCC1 | inactive: -0.0419% |
| Cc1ccc(NP(=O)(Oc2ccccc2F)Oc2ccccc2F)nc1 | inactive: 0.0734% |
| CCOP(=O)(Nc1ccccc1)OCC | inactive: 0.0526% |
| Cc1cc(SC(NC(=O)c2ccc(F)cc2)C(Cl)(Cl)Cl)ncn1 (stereo not drawn) | inactive: -0.17% |
| O=P(Nc1nc2ccc(Cl)cc2s1)(c1ccccc1)c1ccccc1 | inactive: 0.272% |
| O=C(O)c1ccccc1[As](=O)(O)O | inactive: -0.503% |
| CC(=O)Nc1ccc([As](=O)(O)O)cc1 | inactive: -0.77% |
| O=C(O)CNc1ccc([As](=O)(O)O)cc1 | inactive: -1.33% |
| O=[N+]([O-])c1cccc(NC2=NCC(CBr)S2)c1 (stereo not drawn) | inactive: -0.077% |
| O=[N+]([O-])c1ncn(CCn2ncnc2[N+](=O)[O-])n1 | inactive: -0.563% |
| CC(C)(C)C(=O)NC(Sc1ccncn1)C(Cl)(Cl)Cl (stereo not drawn) | inactive: -0.404% |
| O=C(Nc1cc([As](=O)(O)O)ccc1O)c1ccccc1 | inactive: -3.01% |
| CC1CCN(C(=O)Oc2c(Cl)cc(Cl)c3cccnc23)CC1 | inactive: -0.0681% |
| CN(C)C(=O)OCCc1n(C)cc[n+]1C | inactive: -0.158% |
